Binding of CDR-mutated scFvs to a peptide of the spike HR2 region

Source: Li et al. 2023 (doi:10.1038/s41467-023-39022-2), MIT Lincoln Laboratory and A-Alpha Bio; data file from the FLAb repository.

All variants were tested on one target, the spike HR2 peptide PDVDLGDISGINAS (SARS-CoV-2).

The variants keep the light chain, the linker and the frameworks of Ab-14 (scFv order VH, a (GGGGS)3 linker, VL).
VH: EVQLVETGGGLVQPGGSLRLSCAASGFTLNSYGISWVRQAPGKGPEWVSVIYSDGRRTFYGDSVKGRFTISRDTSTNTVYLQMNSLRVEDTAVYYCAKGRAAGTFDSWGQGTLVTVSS
VL: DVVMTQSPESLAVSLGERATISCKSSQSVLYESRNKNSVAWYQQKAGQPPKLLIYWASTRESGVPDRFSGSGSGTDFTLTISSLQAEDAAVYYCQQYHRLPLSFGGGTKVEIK

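The parent was found by panning a naive human phage display library on the peptide. The variants were designed computationally from a first round of random CDR variants and then made and measured. Their group label is 14H_GP_Gen (GP: Gaussian process model; Gen: genetic algorithm; a sequence that several methods proposed may carry one label only). In AlphaSeq, yeast of one mating type display the scFv and yeast of the other type display the target. The frequency of each diploid, read from paired DNA barcodes, reflects how well the two displayed proteins bind. Each replicate has its own calibration line, from reference interactions of the BCL2 family. Mating was done six times.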

Changes read parent residue, position, new residue, counted from the first residue of the VH shown. Numbers give log10(Kd / nM), so 0 is 1 nM and 3 is 1 µM. Smaller is tighter. Averages over replicates are reported, and they cover detected replicates only. Where no diploid with the target was found in that replicate, the entry reads "n.d.": below detection, most likely a poor binder, though not proof of it. A sequence measured in both rounds can read differently, since the two assays cover different ranges.

| # | changes | log10 Kd, replicates | mean, log10 nM | control signals |
|---|---|---|---|---|
| 1 | G26K T28D R56K A101E | 0.18 0.30 -0.01 n.d. n.d. 0.49 | 0.24 | 0/18 |
| 2 | G61S R100K A101T S107T | 0.43 0.22 0.13 0.09 -0.25 0.13 | 0.13 | 0/18 |
| 3 | T28E S53A R100K S107G | 0.97 1.09 0.54 0.89 0.61 0.85 | 0.83 | 0/18 |
| 4 | T28E G61A S63R A101T | n.d. n.d. n.d. n.d. n.d. n.d. | n.d. | 0/18 |
| 5 | T28E G61S R100K A101E | n.d. 1.22 n.d. n.d. n.d. n.d. | 1.22 | 0/18 |
| 6 | G26K T28D G61Q R100Q A101T | 0.87 n.d. 0.86 0.80 0.80 1.03 | 0.87 | 0/18 |
| 7 | T28D F59M A101N | 0.19 0.29 0.20 1.01 0.62 0.06 | 0.39 | 0/18 |
| 8 | T28E S31E R100K A101E | 0.55 1.02 0.55 1.19 0.57 0.47 | 0.73 | 0/18 |
| 9 | R56K S63K A101T | n.d. n.d. n.d. n.d. n.d. n.d. | n.d. | 0/18 |
| 10 | T28D A101E S107L | 0.34 0.56 0.33 0.17 0.22 0.22 | 0.31 | 1/18 (1.44) |
| 11 | G26W T28D F59A | 0.52 0.64 0.61 -0.17 0.16 0.14 | 0.32 | 1/18 (0.78) |
| 12 | T28E G61V R100N | -0.07 0.34 0.31 -0.29 n.d. -0.02 | 0.06 | 0/18 |
| 13 | T28Q S63P A101T | n.d. n.d. 2.70 1.66 1.85 2.34 | 2.14 | 1/18 (3.09) |
| 14 | T28E R56K G61S R100K | -0.15 0.06 -0.05 -0.21 -0.10 0.28 | -0.03 | 0/18 |
| 15 | T28D R56K A101I | 0.32 0.49 0.74 0.73 0.29 0.18 | 0.46 | 0/18 |
| 16 | T28G G61A R100K A101T | -0.66 n.d. n.d. n.d. n.d. n.d. | -0.66 | 0/18 |
| 17 | T28E G61I R100W A101V | 1.14 0.44 0.27 0.78 0.58 0.99 | 0.70 | 0/18 |
| 18 | T28D G61Q R100K A101E | -0.27 -0.37 -0.42 -0.49 -0.35 -0.28 | -0.36 | 1/18 (1.92) |
| 19 | T28Q S31E R56M A101T | 1.28 0.18 0.00 -0.34 0.36 -0.06 | 0.24 | 0/18 |
| 20 | T28E G61S A101E S107T | 0.04 -0.24 -0.60 -0.58 -0.59 -0.35 | -0.39 | 0/18 |
| 21 | T28H A101E | 1.03 0.73 n.d. 1.57 1.61 1.46 | 1.28 | 0/18 |
| 22 | T28S F59A S63H A101T | 0.05 0.08 0.56 -0.09 -0.64 0.40 | 0.06 | 0/18 |
| 23 | T28E S31E R100K A101T S107K | 0.33 -0.50 -0.01 0.94 -0.93 -0.33 | -0.09 | 0/18 |
| 24 | T28N G61V A101N | 1.03 0.98 0.24 1.05 1.18 1.14 | 0.94 | 1/18 (1.18) |
| 25 | T28E S31E R100K S107L | 0.28 0.33 0.26 0.16 0.25 0.38 | 0.28 | 2/18 (2.72) |
| 26 | T28D G61A S63R R100K | n.d. n.d. n.d. n.d. n.d. n.d. | n.d. | 0/18 |
| 27 | T28D G61S A101T S107A | -0.09 0.35 -0.01 -0.44 -0.31 0.25 | -0.04 | 0/18 |
| 28 | T28N G61M A101Q | n.d. 3.32 1.22 n.d. 1.99 1.89 | 2.11 | 1/18 (3.31) |
| 29 | T28Q N30E A101T | 1.60 2.03 n.d. 1.49 1.37 1.04 | 1.51 | 0/18 |
| 30 | T28D G61H R100Q A101T | 0.60 0.27 0.11 0.12 -0.02 0.33 | 0.23 | 2/18 (2.27) |
| 31 | T28S S63P R100K A101T | 1.05 1.63 2.14 1.05 1.20 1.31 | 1.40 | 0/18 |
| 32 | T28L S31E R56M A101T | 0.25 0.58 0.02 -0.17 0.13 0.54 | 0.23 | 0/18 |
| 33 | T28E R56Q G61V A101T | n.d. n.d. n.d. 0.70 n.d. n.d. | 0.70 | 0/18 |
| 34 | T28D G61V R100N A101V | -1.76 0.08 0.74 -1.18 -1.00 -0.63 | -0.63 | 0/18 |
| 35 | T28Q G61A S63D A101T | n.d. 1.35 n.d. n.d. 0.90 n.d. | 1.12 | 0/18 |
| 36 | T28S G61S S63K A101T | -0.23 -0.13 -0.42 1.43 0.71 0.19 | 0.26 | 0/18 |
| 37 | T28N G61A S63R A101N | n.d. n.d. 0.67 n.d. 1.52 n.d. | 1.10 | 0/18 |
| 38 | T28G S31E R100Q A101T | 0.31 0.17 0.25 -0.12 -0.08 0.11 | 0.11 | 0/18 |
| 39 | T28E R56Q G61V A101Q | 1.52 1.61 0.80 0.83 1.03 1.57 | 1.23 | 0/18 |
| 40 | T28E S31N S63A A101T | 2.31 0.53 -0.15 0.09 0.73 0.70 | 0.70 | 0/18 |
| 41 | T28K S31N A101T | n.d. 2.28 n.d. n.d. 1.24 1.00 | 1.51 | 0/18 |
| 42 | T28D S63R R100K A101I | 1.41 1.21 n.d. 0.67 0.96 1.40 | 1.13 | 0/18 |
| 43 | R100Q A101V S107M | 1.88 1.76 1.83 2.27 1.53 2.62 | 1.98 | 0/18 |
| 44 | T28E R56K S63N A101T | 0.57 0.55 0.56 0.58 0.59 0.64 | 0.58 | 2/18 (1.65) |
| 45 | G26Y S31E A101T S107T | n.d. n.d. n.d. n.d. n.d. 2.00 | 2.00 | 0/18 |
| 46 | S53A R56K S107T | -0.05 0.19 -0.09 0.02 -0.21 0.20 | 0.01 | 0/18 |
| 47 | G26K T28S G61A R100K A101N | -0.02 n.d. n.d. 0.11 0.16 -0.65 | -0.10 | 0/18 |
| 48 | T28D G61Q A101T S107A | n.d. 0.41 2.73 1.89 1.42 1.50 | 1.59 | 1/18 (3.02) |
| 49 | T28E S31N R56K A101T | 0.63 1.01 2.31 n.d. 0.90 1.08 | 1.19 | 0/18 |
| 50 | T28E G61V A101T S107T | 0.95 1.11 1.56 1.43 0.89 0.29 | 1.04 | 0/18 |

8 of these entries, quoted again:

changes	log10 Kd, replicates	mean, log10 nM	control signals
T28N G61A S63R A101N	n.d. n.d. 0.67 n.d. 1.52 n.d.	1.10	0/18
T28N G61M A101Q	n.d. 3.32 1.22 n.d. 1.99 1.89	2.11	1/18 (3.31)
T28E R56K G61S R100K	-0.15 0.06 -0.05 -0.21 -0.10 0.28	-0.03	0/18
T28D F59M A101N	0.19 0.29 0.20 1.01 0.62 0.06	0.39	0/18
R100Q A101V S107M	1.88 1.76 1.83 2.27 1.53 2.62	1.98	0/18
T28E S31E R100K A101E	0.55 1.02 0.55 1.19 0.57 0.47	0.73	0/18
T28Q N30E A101T	1.60 2.03 n.d. 1.49 1.37 1.04	1.51	0/18
T28Q S31E R56M A101T	1.28 0.18 0.00 -0.34 0.36 -0.06	0.24	0/18

Empty control strains, which show no peptide, gave a signal in 1% of pairings with all heavy chain designs; the median was 2.08 and 95% of these signals were weaker than 0.84. No background was subtracted. Also given: how often the same scFv was detected with the empty control strains, with their mean in brackets. In the paper, a design with two or fewer of six values counts as a poor binder.